The target of test [1] is T1, 5-hydroxytryptamine receptor 2B (Homo sapiens, UniProt P41595). The experiment in a line: Agonist activity at recombinant human 5HT2B receptor expressed in Flp-In-293 cells assessed as calcium flux by FLIPR assay relative to 5-HT. In kind it is functional, cell-based.
Test [2] has as its target T2, 5-hydroxytryptamine receptor 2A (Homo sapiens, UniProt P28223). Briefly: Agonist activity at human 5HT2A receptor expressed in Flp-In-293 cells assessed as calcium flux by FLIPR assay relative to 5-HT. Format: functional, cell-based.
Test [3] addresses T2, 5-hydroxytryptamine receptor 2A.
Test [4] shares this target. To be noted: 10 uM.
For test [5], the target named is T1, 5-hydroxytryptamine receptor 2B.
Test [6] shares this target. The experiment in a line: Agonist activity at recombinant human 5HT2B receptor expressed in Flp-In-293 cells assessed as calcium flux at 10 uM by FLIPR assay relative to 5-HT. Format: functional, cell-based.

Chains of the proteins cited; added tags and fusions are not shown.
UniProt P41595, whole entry: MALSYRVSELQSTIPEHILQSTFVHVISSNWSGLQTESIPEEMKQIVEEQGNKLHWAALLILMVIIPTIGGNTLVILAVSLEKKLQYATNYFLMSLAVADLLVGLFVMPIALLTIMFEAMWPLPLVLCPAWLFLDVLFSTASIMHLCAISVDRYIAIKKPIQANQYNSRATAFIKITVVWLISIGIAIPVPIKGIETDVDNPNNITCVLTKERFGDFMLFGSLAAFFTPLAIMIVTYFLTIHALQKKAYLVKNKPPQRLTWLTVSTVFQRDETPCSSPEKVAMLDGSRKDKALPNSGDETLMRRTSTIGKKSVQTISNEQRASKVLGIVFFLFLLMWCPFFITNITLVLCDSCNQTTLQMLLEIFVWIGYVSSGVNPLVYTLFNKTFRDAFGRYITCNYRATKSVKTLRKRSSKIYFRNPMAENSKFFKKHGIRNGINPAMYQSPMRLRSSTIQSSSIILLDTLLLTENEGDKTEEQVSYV
UniProt P28223, whole entry: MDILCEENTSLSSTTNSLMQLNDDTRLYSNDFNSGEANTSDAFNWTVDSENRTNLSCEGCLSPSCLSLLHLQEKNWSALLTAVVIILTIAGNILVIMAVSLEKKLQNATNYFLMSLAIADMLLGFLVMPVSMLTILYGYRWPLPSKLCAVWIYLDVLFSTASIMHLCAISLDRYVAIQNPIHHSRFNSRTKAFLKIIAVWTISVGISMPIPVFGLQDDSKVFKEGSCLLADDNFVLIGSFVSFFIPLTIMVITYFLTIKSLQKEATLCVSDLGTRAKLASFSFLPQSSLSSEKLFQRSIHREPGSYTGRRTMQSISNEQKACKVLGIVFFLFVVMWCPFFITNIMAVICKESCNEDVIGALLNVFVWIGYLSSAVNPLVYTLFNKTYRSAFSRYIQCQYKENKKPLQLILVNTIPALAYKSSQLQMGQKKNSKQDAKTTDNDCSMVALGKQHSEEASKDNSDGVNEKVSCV

The values below come from ChEMBL document CHEMBL3769385 (J Med Chem, 2016).

Structures are written as SMILES. Active and inactive are the calls of the source. The calls are words filed in the database; no cut-off is given here. A value given as a limit tells only on which side of the number the result lay.

Turning to `C=CCOc1cc(Cl)c(Cl)cc1C1CC1CN` (single isomer, unassigned; (+)), the Emax was 26% in test [1] and 37% in test [2].

Regarding `C=CCOc1cc(F)c(Cl)cc1C1CC1CN` (single isomer, unassigned; (+)), the pEC50 entry in test [3] was “inactive”. This compound also returned a maximal response (Emax) in test [4] of less than 15%.

Consider `C=CCOc1ccc(Cl)c(Cl)c1C1CC1CN` (single isomer, unassigned; (+)), for which the pEC50 entry in test [3] and in test [5] was “inactive” in each case. In addition, the Emax in test [4] and in test [6] was less than 15% in each case.

Regarding `C=CCOc1ccc(Cl)c(F)c1C1CC1CN` (single isomer, unassigned; (+)), the pEC50 result in test [3] and in test [5] was “inactive” throughout. In addition, the Emax in test [4] and in test [6] was less than 15% in each case.

For the compound `C=CCOc1ccc(F)c(Cl)c1C1CC1CN` (single isomer, unassigned; (+)), the pEC50 result in test [3] was “inactive”. This compound showed a maximum response (Emax) in test [4] of less than 15%.

As to `C=CCOc1ccc(F)c(F)c1C1CC1CN` (single isomer, unassigned; (+)), the pEC50 entry in test [3] was “inactive”. The same compound registered an Emax in test [4] of less than 15%.

As to `NCC1CC1c1c(OCCF)ccc(Cl)c1Cl` (single isomer, unassigned; (+)), the Emax in test [2] was 72%; in test [6] it was less than 15%. Moreover, in test [5], the pEC50 entry is “inactive”.

Take `NCC1CC1c1c(OCCF)ccc(F)c1Cl` (single isomer, unassigned; (+)): the Emax in test [2] was determined as 39%.

On to `NCC1CC1c1c(OCCF)ccc(F)c1F` (single isomer, unassigned; (+)), for which the maximal response (Emax) in test [2] was 30%.

On to `NCC1CC1c1cc(Cl)c(Cl)cc1OCCF` (single isomer, unassigned; (+)), for which the values for the Emax in test [2] and in test [6] were 58% and less than 15%, respectively. In addition, in test [5], the pEC50 result is “inactive”.

As to `NCC1CC1c1cc(Cl)c(F)cc1OCCF` (single isomer, unassigned; (+)), the Emax in test [2] was determined as 41%.

For `NCC1CC1c1cc(F)c(F)cc1OCCF` (single isomer, unassigned; (+)), the Emax in test [1] worked out at 32%; in test [2], 51%.

`C=CCOc1cc(F)c(Cl)cc1C1CC1CN` (single isomer, unassigned; (-)): the pEC50 result in test [3] is “inactive”. This compound showed a maximum response (Emax) in test [4] of less than 15%.

With `C=CCOc1ccc(F)c(Cl)c1C1CC1CN` (single isomer, unassigned; (-)), the pEC50 entry in test [3] and in test [5] was “inactive” in each case. The maximal effect (Emax) in test [4] and in test [6] was less than 15% throughout.

In the case of `C=CCOc1ccc(F)c(F)c1C1CC1CN` (single isomer, unassigned; (-)), the pEC50 entry in test [3] was “inactive”. The compound further had a maximal response (Emax) in test [4] of less than 15%.

Consider `NCC1CC1c1c(OCCF)ccc(Cl)c1Cl` (single isomer, unassigned; (-)), for which the pEC50 entry in test [3] and in test [5] was “inactive” each time. Besides, the maximum response (Emax) in test [4] and in test [6] was less than 15% throughout.

`NCC1CC1c1c(OCCF)ccc(Cl)c1F` (single isomer, unassigned; (-)): the pEC50 result in test [3] and in test [5] was “inactive” each time. The maximum response (Emax) in test [4] and in test [6] was less than 15% each time.

Take `NCC1CC1c1c(OCCF)ccc(F)c1F` (single isomer, unassigned; (-)): the pEC50 result in test [3] and in test [5] was “inactive” throughout. In addition, the maximum response (Emax) in test [4] and in test [6] was less than 15% each time.

`NCC1CC1c1cc(Cl)c(Cl)cc1OCCF` (single isomer, unassigned; (-)): the pEC50 entry in test [3] and in test [5] was “inactive” in each case. Further, the maximal response (Emax) in test [4] and in test [6] was less than 15% in each case.

With `NCC1CC1c1cc(F)c(F)cc1OCCF` (single isomer, unassigned; (-)), the pEC50 entry in test [3] and in test [5] was “inactive” in each case. For the same compound, the Emax in test [4] and in test [6] was less than 15% throughout.

On to `COc1ccc(F)c(Cl)c1C1CC1CN` (stereo in doubt; (+)-20g), for which, in test [5], the pEC50 entry is “inactive”. The Emax in test [6] is less than 15%.

Turning to `NCC1CC1c1c(OCCF)ccc(Cl)c1F` (stereo in doubt; (+)-21d), the Emax in test [2] is 40%; in test [6] it was less than 15%. For the same compound, the pEC50 result in test [5] is “inactive”.

For the compound `COc1cc(Cl)c(Cl)cc1C1CC1CN` (stereo in doubt; (-)-20e), the pEC50 entry in test [5] was “inactive”. Further, the Emax in test [6] was less than 15%.

For `NCC1CC1c1cc(Cl)c(F)cc1OCCF` (stereo in doubt; (-)-21c), the pEC50 entry in test [3] was “inactive”. In test [4], this compound gave an Emax of less than 15%.

Take `NCC1CC1c1c(OCCF)ccc(F)c1Cl` (stereo in doubt; (-)-21g): the pEC50 result in test [3] and in test [5] was “inactive” in each case. For the same compound, the Emax in test [4] and in test [6] was less than 15% each time.

Take `C=CCOc1ccc(Cl)c(F)c1C1CC1CN` (stereo in doubt; (-)-22d): the results for the maximal response (Emax) in test [2] and in test [6] were 60% and less than 15%, respectively. The pEC50 result in test [5] is “inactive”.

Consider `C=CCOc1cc(Cl)c(Cl)cc1C1CC1CN` (stereo in doubt; (-)-22e), for which the pEC50 entry in test [3] and in test [5] was “inactive” in each case. The maximum response (Emax) in test [4] and in test [6] was less than 15% throughout.

`C=CCOc1ccc(Cl)c(Cl)c1C1CC1CN` (stereo in doubt; (-)-22f): the maximum response (Emax) in test [2] is 77%; in test [6] it was less than 15%. Also, the pEC50 result in test [5] is “inactive”.
